Data on 1 molecule can be found in PubChem BioAssay AID1839 (Johns Hopkins Ion Channel Center, 2009).

Structures are written as SMILES. The list shows a part of the results, in another mix than the full data. Calls of active or inactive are those of the source.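 Rule for the calls: active = signal change above the mean of dofetilide-free buffer controls plus 3 SD, so a positive margin; inactive = the rest.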

A short description of this experiment: thallium signal changes without hERG – cell-based, CHO-K1 parental line, FluxOR thallium flux, counter-screen for hERG block protection project, confirmation (AID 1839).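 Note: compounds applied alone with no dofetilide to cells lacking hERG.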 As to conditions: CHO-K1 parental cells, FluxOR thallium flux fluorescence; at 10 µM.
On to `CCOC(=O)N1CCC(Nc2ccc(OC)cc2)CC1`, for which the signal change vs control minus 3*SD hit threshold (margin above threshold, higher = more increase) was inactive: -19.8%.
